What all share (assay type): cell-based
Assay [1] deals with T1, human PAC1 receptor (Homo sapiens, UniProt P41586).
T1 construct: expressed in transfected cells; host or cells: CHO cells (G418 selection)
T1 sequence (P41586 21-468): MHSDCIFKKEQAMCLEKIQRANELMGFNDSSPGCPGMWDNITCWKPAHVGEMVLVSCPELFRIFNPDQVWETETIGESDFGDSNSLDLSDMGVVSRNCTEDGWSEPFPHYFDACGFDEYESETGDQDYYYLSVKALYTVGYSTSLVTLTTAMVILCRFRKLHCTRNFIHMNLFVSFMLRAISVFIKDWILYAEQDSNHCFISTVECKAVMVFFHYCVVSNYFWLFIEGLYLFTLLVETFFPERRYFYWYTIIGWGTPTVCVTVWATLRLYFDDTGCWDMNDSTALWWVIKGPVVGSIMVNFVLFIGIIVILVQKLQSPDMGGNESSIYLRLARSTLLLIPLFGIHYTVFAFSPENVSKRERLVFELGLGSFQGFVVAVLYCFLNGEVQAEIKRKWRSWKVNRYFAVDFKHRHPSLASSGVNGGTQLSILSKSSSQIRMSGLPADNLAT
As to the kind of experiment: cAMP stimulation in CHO cells expressing PAC1. Conditions: for Emax: CHO. As to the method: (§1) Briefly, human PAC1, VPAC1, and VPAC2 receptors expressed in CHO cells were used for all experiments. Cells were grown in 50:50 DMEM-F12 medium with 10% heat-inactivated fetal bovine serum, 1X penicillin-streptomycin supplement, and 500 μg/ml G418 (neomycin) to maintain selection (all from ThermoFisher) at 37°C with 5% CO2 atmosphere. For the cAMP assay, cells were seeded at 20,000 cells/well in a 96 well plate, recovered overnight, then serum starved for 4 h. The cells were then incubated with 500 μM IBMX for 20 min, followed by agonist concentration curves in 500 μM IBMX media for 10 min. The reaction was terminated, boiled, then collected, followed by competition with 7 μg of bovine protein kinase A (Sigma-Aldrich) and ∼1 pmol of ^3H-cAMP (PerkinElmer). The assay was incubated at room temp for 1 h, then collected onto GF/B filter plates and the data read using a MicroBeta2 scintillation counter (PerkinElmer).

The chains behind the UniProt entries cited, without tags or fusion partners. Residues count along the entry.
UniProt P32241, 31-457: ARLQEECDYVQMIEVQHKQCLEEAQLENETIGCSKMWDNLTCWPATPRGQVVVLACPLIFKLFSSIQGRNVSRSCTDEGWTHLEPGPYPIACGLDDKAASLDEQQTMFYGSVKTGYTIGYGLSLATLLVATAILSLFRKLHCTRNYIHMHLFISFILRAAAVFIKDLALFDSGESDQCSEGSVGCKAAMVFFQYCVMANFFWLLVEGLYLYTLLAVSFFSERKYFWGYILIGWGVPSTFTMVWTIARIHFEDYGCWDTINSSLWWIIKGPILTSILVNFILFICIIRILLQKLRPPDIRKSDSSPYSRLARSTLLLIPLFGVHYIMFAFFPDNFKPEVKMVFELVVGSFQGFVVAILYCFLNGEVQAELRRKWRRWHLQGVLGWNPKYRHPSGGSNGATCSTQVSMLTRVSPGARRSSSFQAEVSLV

Assay [2] concerns the target T2, human VPAC1 receptor (Homo sapiens, UniProt P32241).
T2 construct: expressed in transfected cells; host or cells: CHO cells (G418 selection)
As to the kind of experiment: cAMP stimulation in CHO cells expressing VPAC1. Conditions: for Emax: CHO; for Receptor selectivity ratio VPAC1/PAC1: ratio of cAMP EC50 values.

Assay [3] has as its target T3, human VPAC2 receptor (Homo sapiens, UniProt P41587).
T3 construct: expressed in transfected cells; host or cells: CHO cells (G418 selection)
T3 sequence (P41587 24-438): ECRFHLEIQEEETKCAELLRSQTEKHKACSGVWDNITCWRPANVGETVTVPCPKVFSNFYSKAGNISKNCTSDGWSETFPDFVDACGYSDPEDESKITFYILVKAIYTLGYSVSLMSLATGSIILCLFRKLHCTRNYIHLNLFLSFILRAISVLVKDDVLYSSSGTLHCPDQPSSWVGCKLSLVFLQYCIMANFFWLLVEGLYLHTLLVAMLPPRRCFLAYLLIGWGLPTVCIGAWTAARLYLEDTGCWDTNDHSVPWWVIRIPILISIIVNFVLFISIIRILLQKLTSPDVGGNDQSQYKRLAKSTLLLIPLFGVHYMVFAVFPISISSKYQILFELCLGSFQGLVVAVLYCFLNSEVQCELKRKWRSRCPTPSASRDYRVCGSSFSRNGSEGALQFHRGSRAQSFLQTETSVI
As to the kind of experiment: cAMP stimulation in CHO cells expressing VPAC2. Conditions: for Emax: CHO; for Receptor selectivity ratio VPAC2/PAC1 / Receptor selectivity ratio VPAC2/VPAC1: ratio of cAMP EC50 values. How it is done:
as §1

We go through 3 compounds from paper PMC8887546, “Design and Synthesis of Brain Penetrant Glycopeptide Analogues of PACAP With Neuroprotective Potential for Traumatic Brain Injury and Parkinsonism” (Frontiers in drug discovery, 2022).

Structures are written as SMILES.

Consider `CCC[C@H](NC(=O)[C@H](CCC(N)=O)NC(=O)[C@H](CCCCN)NC(=O)[C@H](CCCNC(=N)N)NC(=O)[C@H](Cc1ccc(O)cc1)NC(=O)[C@H](CCCNC(=N)N)NC(=O)[C@H](CO)NC(=O)[C@H](Cc1ccc(O)cc1)NC(=O)[C@H](CO)NC(=O)[C@H](CC(=O)O)NC(=O)[C@@H](NC(=O)[C@H](Cc1ccccc1)NC(=O)[C@@H](NC(=O)CNC(=O)[C@H](CC(=O)O)NC(=O)[C@@H](CO)NC(=O)[C@@H](N)Cc1c[nH]cn1)[C@@H](C)CC)[C@@H](C)O)C(=O)N[C@@H](C)C(=O)N[C@H](C(=O)N[C@@H](CCCCN)C(=O)N[C@@H](CCCCN)C(=O)N[C@@H](Cc1ccc(O)cc1)C(=O)N[C@@H](CC(C)C)C(=O)N[C@@H](C)C(=O)N[C@@H](C)C(=O)N[C@H](C(=O)N[C@@H](CC(C)C)C(=O)N[C@@H](CO[C@@H]1O[C@H](CO)[C@@H](O)[C@H](O)[C@H]1O)C(N)=O)C(C)C)C(C)C` [CRA3000], for which, in assay [1], the EC50 – broadly, the concentration giving half of the maximal effect – was found to be 25.5 nM and the Emax (commonly the size of the effect at its maximum, as opposed to the concentration needed) stood at 85%. In assay [2], a half-maximal response (EC50) required 1.3 nM, the Emax stood at 90% and the “Receptor selectivity ratio VPAC1/PAC1” value stood at 0.05. Moreover, in assay [3], it took 241 nM to reach a half-maximal effect (EC50), the Emax came out at 104%, the “Receptor selectivity ratio VPAC2/PAC1” value was 9.45 and the “Receptor selectivity ratio VPAC2/VPAC1” value worked out at 185.38.

`CCC[C@H](NC(=O)[C@H](CCC(N)=O)NC(=O)[C@H](CCCCN)NC(=O)[C@H](CCCNC(=N)N)NC(=O)[C@H](Cc1ccc(O)cc1)NC(=O)[C@H](CCCNC(=N)N)NC(=O)[C@H](CO)NC(=O)[C@H](Cc1ccc(O)cc1)NC(=O)[C@H](CO)NC(=O)[C@H](CC(=O)O)NC(=O)[C@@H](NC(=O)[C@H](Cc1ccccc1)NC(=O)[C@@H](NC(=O)CNC(=O)[C@H](CC(=O)O)NC(=O)[C@@H](CO)NC(=O)[C@@H](N)Cc1c[nH]cn1)[C@@H](C)CC)[C@@H](C)O)C(=O)N[C@@H](C)C(=O)N[C@H](C(=O)N[C@@H](CCCCN)C(=O)N[C@@H](CCCCN)C(=O)N[C@@H](Cc1ccc(O)cc1)C(=O)N[C@@H](CC(C)C)C(=O)N[C@@H](C)C(=O)N[C@@H](C)C(=O)N[C@H](C(=O)N[C@@H](CO[C@@H]1O[C@H](CO)[C@@H](O)[C@H](O)[C@H]1O)C(N)=O)C(C)C)C(C)C` [CRA3001]: in assay [1], a half-maximal response (EC50) required 54.5 nM and the Emax was 86%. Also, in assay [2], a half-maximal response (EC50) required 4.8 nM, the Emax turned out to be 90% and the “Receptor selectivity ratio VPAC1/PAC1” value stood at 0.09. In addition, in assay [3], the EC50 worked out at 654 nM, the Emax amounted to 107%, the “Receptor selectivity ratio VPAC2/PAC1” value turned out to be 12.00 and the “Receptor selectivity ratio VPAC2/VPAC1” value was found to be 136.25.

`CCC[C@H](NC(=O)[C@H](CCC(N)=O)NC(=O)[C@H](CCCCN)NC(=O)[C@H](CCCNC(=N)N)NC(=O)[C@H](Cc1ccc(O)cc1)NC(=O)[C@H](CCCNC(=N)N)NC(=O)[C@H](CO)NC(=O)[C@H](Cc1ccc(O)cc1)NC(=O)[C@H](CO)NC(=O)[C@H](CC(=O)O)NC(=O)[C@H](C)NC(=O)[C@H](Cc1ccccc1)NC(=O)[C@@H](NC(=O)CNC(=O)[C@H](CC(=O)O)NC(=O)[C@@H](CO)NC(=O)[C@@H](N)Cc1c[nH]cn1)[C@@H](C)CC)C(=O)N[C@@H](C)C(=O)N[C@H](C(=O)N[C@@H](CCCCN)C(=O)N[C@@H](CCCCN)C(=O)N[C@@H](Cc1ccc(O)cc1)C(=O)N[C@@H](CC(C)C)C(=O)N[C@@H](C)C(=O)N[C@@H](C)C(=O)N[C@H](C(=O)N[C@@H](CC(C)C)C(=O)N[C@@H](CO[C@@H]1O[C@H](CO)[C@@H](O)[C@H](O)[C@H]1O)C(N)=O)C(C)C)C(C)C` [CRA3003]: the Emax in assay [2] turned out to be 93%.
